Laboratory results: PMC11084632, “Pharmacological Evaluation of Cannabinoid Receptor Modulators Using GRABeCB2.0 Sensor” (International Journal of Molecular Sciences, 2024)

Amino acid sequences for entries named in this document (tags omitted).
UniProt P21554, whole entry S383T, looked up: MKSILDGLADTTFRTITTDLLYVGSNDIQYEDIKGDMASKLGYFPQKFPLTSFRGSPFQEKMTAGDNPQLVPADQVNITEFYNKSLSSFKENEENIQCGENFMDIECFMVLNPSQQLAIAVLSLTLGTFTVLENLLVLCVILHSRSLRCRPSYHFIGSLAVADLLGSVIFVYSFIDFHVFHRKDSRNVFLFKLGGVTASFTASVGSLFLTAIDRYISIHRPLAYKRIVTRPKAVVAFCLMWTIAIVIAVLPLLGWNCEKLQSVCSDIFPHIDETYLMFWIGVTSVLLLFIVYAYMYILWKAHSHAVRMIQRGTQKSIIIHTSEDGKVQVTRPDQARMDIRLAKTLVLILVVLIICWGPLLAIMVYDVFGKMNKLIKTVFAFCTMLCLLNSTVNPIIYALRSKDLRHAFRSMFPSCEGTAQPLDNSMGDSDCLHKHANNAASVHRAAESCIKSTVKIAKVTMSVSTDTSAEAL

Columns and labels:
GRABeCB2.0 sensor [1] = target: T1, GRABeCB2.0 sensor (Homo sapiens, UniProt P21554, S383T, form not given)
GRABeCB2.0 sensor [2] = target: T1, GRABeCB2.0 sensor; remark: listed apart in the source
GRABeCB2.0 sensor [3] = target: T1, GRABeCB2.0 sensor; remark: listed apart in the source

O=C(Nc1ccc(Cl)cc1)Nc1cccc(-c2cccc(N3CCCC3)n2)c1 [PSNCBAM-1]
Effect on 2-AG-activated GRABeCB2.0 fluorescence (GRABeCB2.0 sensor [1]): this behavior could be replicated
Effect on CP55940-activated GRABeCB2.0 fluorescence (GRABeCB2.0 sensor [1]): void of any concentration-dependent effects
IC50 (GRABeCB2.0 sensor [1]; read-out: IC50 as weak antagonists (normalized curve)): 567 nM
Mode of antagonism in Schild-like analysis (GRABeCB2.0 sensor [2]): non-competitive antagonism; also recorded: did not significantly affect the EC50 value of CP55,940
Effect on GRABeCB2.0 basal fluorescence (GRABeCB2.0 sensor [3]): weak inverse agonism at higher concentrations

Entries after “also recorded” stand apart in the source; their conditions may differ.
